Binding of CDR-mutated scFvs to a peptide of the spike HR2 region

Source: Engelhart et al. 2022 (doi:10.1038/s41597-022-01779-4), MIT Lincoln Laboratory and A-Alpha Bio; data file from the FLAb repository.

Target peptide (SARS-CoV-2 spike, HR2 region): PDVDLGDISGINAS

Ab-14 is the parent antibody, in scFv form: VH, then three GGGGS repeats, then VL. The heavy chain is unchanged in all variants.
VH: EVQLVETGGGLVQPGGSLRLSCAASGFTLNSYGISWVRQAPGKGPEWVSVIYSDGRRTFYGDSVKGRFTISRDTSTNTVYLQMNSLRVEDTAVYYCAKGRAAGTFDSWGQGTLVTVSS
VL: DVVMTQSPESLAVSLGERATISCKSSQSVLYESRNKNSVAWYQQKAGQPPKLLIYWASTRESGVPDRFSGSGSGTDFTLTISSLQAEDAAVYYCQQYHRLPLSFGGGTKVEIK

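The starting antibody came from a phage panning campaign against this peptide. In library AAYL50, one, two or three CDR residues were substituted; doubles and triples were drawn at random. AlphaSeq pools MATa yeast showing the antibodies with MATalpha yeast showing the peptide. Binding brings cells together so that they mate, and sequencing counts the barcode pairs among the diploids. Scores were corrected for input abundance and mapped to Kd with protein pairs of known affinity run in the same pool. There are three technical replicates.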

Each variant is given by its three light chain CDRs, as the data file delimits them; those of the parent are KSSQSVLYESRNKNSVA, WASTRES, QQYHRLPLS. Numbers give log10(Kd / nM), so 0 is 1 nM and 3 is 1 µM. Smaller is tighter. An entry "nd" has no value in the source: the pair was not observed among the diploids in that replicate. This suggests poor binding but is not conclusive. Three control strains display no target. For library AAYL50, 18% of the pairings with them gave a signal, with a median of 4.19 and one signal in twenty below 2.99, so weak values seen in few replicates may be background. The control count says in how many pairings with the empty strains this scFv gave a signal, with their mean in brackets.

CDR-L1,CDR-L2,CDR-L3,log10 Kd (nM) by replicate,empty controls
KSSQSVHYESRNKNSVA,WASTRES,QQSERLPLS,1.36 / 1.98 / 1.93,0 of 9
KSSQSVEYESRNKNDVA,WASTREE,QQYHRLPLS,1.72 / 1.86 / 1.95,4 of 9 (4.71)
KSCQRVLYESRNKNSVA,WAHTRES,QQYHRLPLS,nd / nd / nd,0 of 9
KWSQSVLYESGNKNSVA,WASTRES,QKYHRLPLS,nd / nd / nd,0 of 9
KSSQSVLYESRHKNSQA,WASTRES,QQYHRLPLS,nd / nd / nd,2 of 9 (2.72)
KSSQSGLYESMNKNSVA,WASTREC,QQYHRLPLS,1.05 / 1.20 / 1.50,1 of 9 (3.63)
KSSQSVLYESRNKLSVA,WASNRES,QQYHRLPPS,nd / nd / 4.15,1 of 9 (3.79)
KSSQSVLYESRNKNSVA,WASPWTS,QQYHRLPLS,nd / nd / 3.36,1 of 9 (4.38)
KSSQSVLLESRNKNSVA,WAWTRES,QQYHALPLS,2.68 / 1.65 / 2.18,0 of 9
KSSQSVLYESRNKTSVA,NKSTRES,QQYHRLPLS,0.72 / 0.90 / 0.70,0 of 9
KSSQSVLYEDRHKNSVA,WASTRFS,QQYHRLPLS,0.65 / 0.85 / 0.93,0 of 9
KSSQIVLYEQRNKNSVA,WASTRES,QQYHVLPLS,2.60 / 2.21 / 3.07,2 of 9 (4.63)
KSSQSVLRESRNRNSVA,AASTRES,QQYHRLPLS,0.67 / 0.67 / 0.34,0 of 9
KSSQSHLYESRNKNSQA,WASTRES,QQYHRLRLS,nd / nd / nd,0 of 9
KSSRSVLRESRNMNSVA,WASTRES,QQYHRLPLS,nd / 2.12 / 3.24,0 of 9
KSSQSALMESRNKNSQA,WASTRES,QQYHRLPLS,nd / nd / nd,1 of 9 (4.26)
KSSQSVQSESRNKNSVA,WASTRIS,QQYHRLPLS,0.62 / 0.81 / 0.95,0 of 9
KSSQSVLYESRNKNSHA,WASTRGW,QQYHRLPLS,5.96 / nd / 4.38,3 of 9 (4.44)
KSSQSVLPESRNKVSVA,SASTRES,QQYHRLPLS,0.19 / 0.49 / 0.36,5 of 9 (5.23)
KSSCSVLYESRNKNSVH,EASTRES,QQYHRLPLS,1.21 / 1.32 / 1.45,4 of 9 (3.98)
KSSQSVLYESRNKNSVR,WASTRES,FGYHRLPLS,nd / nd / nd,0 of 9
KTSQSVLYESRNKNSVA,WASTRES,QQNHREPLS,0.76 / 0.95 / 0.87,2 of 9 (5.66)
KSSQSVLCESRNKNSVA,WASTRES,QQYHRLPLS,2.04 / 1.74 / 2.04,4 of 9 (4.04)
KSSQSVLYESRNKNGVA,WYSTRES,QQWHRLPLS,nd / 3.84 / nd,6 of 9 (4.81)
KSSQSLLYESRNKNSVA,WNSTRES,QQNHRLPLS,nd / nd / 5.43,3 of 9 (4.22)
KSSQSVLYESRNKNSVN,WASTRES,EQYHRLMLS,nd / nd / nd,3 of 9 (3.82)
KSSQSVLYESRNKNSVA,WASGRES,TQYHRLPMS,3.97 / nd / nd,3 of 9 (4.34)
KSSQSVLYESRNLLSVA,WASCRES,QQYHRLPLS,3.35 / 3.34 / 3.77,0 of 9
KSSQPVDYESRNKNSVA,WASGRES,QQYHRLPLS,3.56 / 3.22 / nd,2 of 9 (3.05)
KSSQSILYESRNKNSVA,WASTRES,QPYSRLPLS,nd / nd / nd,2 of 9 (4.03)
KSSQSVLYESYNKNSVA,WASTRES,QQFHDLPLS,nd / nd / nd,0 of 9
KSSNSHLYESRNKNSVA,WASTRES,QQYHRLPLS,0.56 / 0.79 / 0.62,1 of 9 (3.36)
KWSQSVLYESRAKNSVA,WASTRES,QQYYRLPLS,0.56 / 0.80 / 0.71,1 of 9 (5.72)
KSSQSILYESRNKNSVA,WASTRES,QSYMRLPLS,1.30 / 2.64 / 2.55,0 of 9
KSSVSVLYESCNKNSVA,WASTIES,QQYHRLPLS,4.58 / nd / nd,3 of 9 (3.29)
KSSFSVLYESRHKNSVA,WASWRES,QQYHRLPLS,nd / nd / 3.06,0 of 9
KSSQSVLYESRNKNSVA,WASTRES,PQFHRLPLS,nd / nd / nd,0 of 9
KSSQSVLYESRNKNSVA,WASTHES,QQYSRLVLS,nd / 4.18 / 5.16,3 of 9 (3.62)
KSSQSVLYESRNKNSFA,WASTRES,QQYHLLPLY,2.38 / nd / nd,1 of 9 (3.17)
LSSQAVLYPSRNKNSVA,WASTRES,QQYHRLPLS,2.67 / 2.68 / 2.77,1 of 9 (4.41)
KSSQSNLYESYNKNSVA,WASWRES,QQYHRLPLS,1.78 / 2.21 / 3.33,0 of 9
KSSRSVLYESGNKNSKA,WASTRES,QQYHRLPLS,nd / nd / nd,3 of 9 (4.68)
KSSQSVLYEVRNKNSVA,WASTRES,QPYHRLPKS,6.40 / nd / nd,8 of 9 (4.72)
KSSQSVLYESRNKIMVA,WASTRES,QQYHRLPHS,nd / nd / nd,0 of 9
KSSQSVLMEARNKNSVA,WASTRES,QQYHRLDLS,nd / nd / nd,0 of 9
KSSQSVHYESRNKNSVA,WASTRES,QQYHRLTLS,0.60 / 0.89 / 0.68,0 of 9
KSSQSVYYESRNKNSVA,WATTRES,QQYHRLPLQ,1.25 / 1.40 / 1.29,1 of 9 (3.73)

The last 4 entries again:

{"CDR-L1": "KSSQSVLYESRNKIMVA", "CDR-L2": "WASTRES", "CDR-L3": "QQYHRLPHS", "log10 Kd (nM) by replicate": "nd / nd / nd", "empty controls": "0 of 9"}
{"CDR-L1": "KSSQSVLMEARNKNSVA", "CDR-L2": "WASTRES", "CDR-L3": "QQYHRLDLS", "log10 Kd (nM) by replicate": "nd / nd / nd", "empty controls": "0 of 9"}
{"CDR-L1": "KSSQSVHYESRNKNSVA", "CDR-L2": "WASTRES", "CDR-L3": "QQYHRLTLS", "log10 Kd (nM) by replicate": "0.60 / 0.89 / 0.68", "empty controls": "0 of 9"}
{"CDR-L1": "KSSQSVYYESRNKNSVA", "CDR-L2": "WATTRES", "CDR-L3": "QQYHRLPLQ", "log10 Kd (nM) by replicate": "1.25 / 1.40 / 1.29", "empty controls": "1 of 9 (3.73)"}